The source of these data is ChEMBL document CHEMBL6083240, “Design, synthesis and biological evaluation of arylpropylamine derivatives as potential multi-target antidepressants” (Bioorg Med Chem, 2024).

By UniProt entry, the sequences of proteins in these tests, tags left out.
UniProt Q63380, whole entry: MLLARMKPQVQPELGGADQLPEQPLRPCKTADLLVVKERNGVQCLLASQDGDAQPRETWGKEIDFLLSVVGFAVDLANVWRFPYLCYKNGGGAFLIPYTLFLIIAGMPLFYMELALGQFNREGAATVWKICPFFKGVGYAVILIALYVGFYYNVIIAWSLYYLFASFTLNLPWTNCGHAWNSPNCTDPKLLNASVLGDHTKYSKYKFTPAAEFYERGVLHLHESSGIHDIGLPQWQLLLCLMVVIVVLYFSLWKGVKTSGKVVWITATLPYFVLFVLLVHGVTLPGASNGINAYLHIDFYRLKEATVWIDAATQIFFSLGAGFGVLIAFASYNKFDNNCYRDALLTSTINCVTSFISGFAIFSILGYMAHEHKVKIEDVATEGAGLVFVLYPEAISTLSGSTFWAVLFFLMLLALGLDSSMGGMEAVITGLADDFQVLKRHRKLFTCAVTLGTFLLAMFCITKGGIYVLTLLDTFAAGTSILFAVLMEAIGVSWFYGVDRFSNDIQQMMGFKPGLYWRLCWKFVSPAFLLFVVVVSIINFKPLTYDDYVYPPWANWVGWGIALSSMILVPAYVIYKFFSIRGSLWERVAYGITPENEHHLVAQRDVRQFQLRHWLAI

For the assay, the target named is Transporter (Rattus norvegicus, UniProt Q63380). Put plainly: Antagonist activity at rat cerebral cortex membrane NET incubated for 10 mins in presence of [3H]-NE. The format is cell membranes.

pIC50: −log10 of the molar value.

For orientation: pIC50 means −log10 of the IC50, conventionally taken in molar units. Consider `CNCCC(Oc1ccccc1OC)c1ccccc1` (stereo unspecified) [NISOXETINE], for which the pIC50 is 7.45.
